# Antibody variant affinities, Ab-14 light chain, assay 1

Reference: Engelhart et al. 2022, doi:10.1038/s41597-022-01779-4. File: FLAb, binding data.

Target peptide (SARS-CoV-2 spike, HR2 region): PDVDLGDISGINAS

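The parent was found by panning a naive human phage display library on the peptide. Variants in AAYL50 differ from the parent at up to three CDR positions; double and triple changes were sampled at random. The assay is AlphaSeq: two haploid yeast populations carry antibody and antigen on their surface. Pairs that bind mate more often; barcode pairs of the diploids are counted by sequencing. Each replicate has its own calibration line, from reference interactions of the BCL2 family. Each pool was mated in three replicate cultures.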

Parent scFv Ab-14: VH joined to VL by three GGGGS repeats. Changes lie in the light chain CDRs alone.
VH: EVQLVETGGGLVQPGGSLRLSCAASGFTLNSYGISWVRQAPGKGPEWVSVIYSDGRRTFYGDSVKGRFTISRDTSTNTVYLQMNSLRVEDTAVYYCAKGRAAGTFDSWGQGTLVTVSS
VL: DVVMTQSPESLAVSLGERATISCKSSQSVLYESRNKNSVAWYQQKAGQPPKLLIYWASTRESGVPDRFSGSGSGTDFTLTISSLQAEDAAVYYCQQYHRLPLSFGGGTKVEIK

The parent's light chain CDRs are KSSQSVLYESRNKNSVA, WASTRES, QQYHRLPLS; each variant's own CDRs replace them letter for letter.
Affinities are written as log10 Kd with Kd in nM; a lower number is a better binder.
The mean shown is taken over the replicates in which the pair was detected.
A pair that was not seen in any replicate is written "no signal"; this usually means weak binding, but a binder can also be missed.
Empty control strains, which show no peptide, gave a signal in 18% of pairings with library AAYL50; the median was 4.19 and 95% of these signals were weaker than 2.99. No background was subtracted.

CDR-L1 | CDR-L2 | CDR-L3 | log10 Kd (nM), mean | replicates with signal
KSSQSVEYESRNKNSVA | FASTRIS | QQYHRLPLS | no signal | 0 of 3
KNSQSVLYESRNKNSVA | WASTREG | QQYHRLRLS | 3.68 | 3 of 3
KSSQSVLLESRNKNAVA | WASTRES | QQYHRLPLE | 1.36 | 3 of 3
KANQSVLYESRNKNSVA | WASTRES | QQYHRMPLS | 0.82 | 3 of 3
KSSQSILYESRNDNSVA | WASTRES | QQYHRLPLS | 0.72 | 3 of 3
KSFQSVLYESVNKNSVA | WISTRES | QQYHRLPLS | no signal | 0 of 3
KSSQSVLVESDNKNSVA | WASTRES | QQYTRLPLS | 0.44 | 3 of 3
KSSQSVLYESRNKNSVA | WPSTRIS | QQYHRLPLR | no signal | 0 of 3
KSSQFVLYESRNKNSVA | WAWTQES | QQYHRLPLS | 3.10 | 1 of 3
KSSQSVLYESRNFNSVA | WASTRES | QQYIRLPLS | 1.46 | 3 of 3
KSSQSELYESRNKNSYA | WASTRES | QQYTRLPLS | 3.84 | 3 of 3
KSSQSRLYESRNKNSVA | WASTRES | QQYHFLPLS | 2.25 | 3 of 3
KSSQSVLYEARNKNLVA | WASTRES | QQYHQLPLS | no signal | 0 of 3
KSSQSVLYESRNKSHVA | WASTRES | QQYHALPLS | 3.35 | 2 of 3
KSSQSPLYLSRNTNSVA | WASTRES | QQYHRLPLS | 1.28 | 3 of 3
KSSMSVLYESRNENSVA | WASTRES | QQKHRLPLS | 1.30 | 3 of 3
KSSQSVLYESRNKNSVA | KASTRES | TQYARLPLS | no signal | 0 of 3
KSSQSVLMEHRNKNSVA | WASTRES | QQYHRVPLS | 1.81 | 3 of 3
KSSQSQLYERNNKNSVA | WASTRES | QQYHRLPLS | 1.55 | 3 of 3
KSSQSVNYEHRNKNSVA | NASTRES | QQYHRLPLS | 0.82 | 3 of 3
KSSGSVLYESRNKNKVA | WASTRES | WQYHRLPLS | no signal | 0 of 3
NSSQSVLYESRNKNSVA | WKSTRES | QQYHRLPPS | 3.33 | 1 of 3
KSSQSVLYESRNKNSVA | WASTRES | QQYMRLPLG | 1.31 | 3 of 3
KSSQSVLYESRPKNSVA | WASTRES | QMYHRLPLS | 3.54 | 1 of 3
KSSQSVLYESRNKNQVA | WASTRES | QQYHRDPLS | no signal | 0 of 3
SSSQSYLYESRNKNSVA | WASTFES | QQYHRLPLS | no signal | 0 of 3
KSSKSVLQESRNCNSVA | WASTRES | QQYHRLPLS | 0.62 | 3 of 3
KSSQSVLYESRSKNSVA | WWSTRES | QQYHRLPLS | no signal | 0 of 3
KSSQSVLYESRNKVSVA | WASTEES | QQYHRQPLS | no signal | 0 of 3
KSSQSVLYESRNKNHMA | WASIRES | QQYHRLPLS | no signal | 0 of 3
KSNQSVLYESRNKESVA | WASTRES | QQYHRLPLS | 2.60 | 3 of 3
KSSQSVLYESRNKNSVA | GASCRES | QQYHRLPLR | 0.47 | 3 of 3
KSEQSVLYESRFKNSVA | WASTRES | QQYHRLPLS | 4.21 | 1 of 3
CSSQSVLYESRNKNSVA | WASTRES | QQYHRLPHS | no signal | 0 of 3
KSSQYVLYESRNKNSVA | WQSTRES | QQKHRLPLS | 2.45 | 2 of 3
KSSQSVLYEVRNKRSVA | WASTRGS | QQYHRLPLS | no signal | 0 of 3
KSSDSPLYESRNKNSVA | WASTRES | QQYHRLPLS | 0.65 | 3 of 3
KSSQHVLYVSRNKNSVL | WASTRES | QQYHRLPLS | no signal | 0 of 3
KSSQSVLYESRYKNSVM | WASTSES | QQYHRLPLS | no signal | 0 of 3
KSSQVVLYESRNKNTVA | WASTEES | QQYHRLPLS | no signal | 0 of 3
KSSQSVLYESRNKNSVA | WASTRES | QQLHSLPLS | 4.66 | 1 of 3
KSSQSVLYESSNKNAVA | WASTRES | QQYHRNPLS | no signal | 0 of 3
FSCQSVLYESRNKNSVA | WASTRES | QQYHRLPLS | 3.28 | 3 of 3
KSSQSVLYDFRNKNSVV | WASTRES | QQYHRLPLS | no signal | 0 of 3
KSSQSVLYESRNKNSPA | WESTRES | QQYHRLPLF | 3.65 | 2 of 3
KSSQSVLYESRPFNSVA | WASTRES | QQYHRGPLS | 1.27 | 3 of 3
KSSQSVLYESRNKNSGA | TASTRES | QQYWRLPLS | 4.90 | 2 of 3
KWSQSVLYESRNKNSVA | WASTRES | QQYHRKPLS | 4.61 | 2 of 3
KSGQSVLYESRNKNSVA | WASTRES | TQYHRCPLS | no signal | 0 of 3
KSLQSVLYTSRNKYSVA | WASTRES | QQYHRLPLS | 1.59 | 3 of 3
KSSQSVLHESRNKNSVA | WLSTRPS | QQYHRLPLS | no signal | 0 of 3
KSSQSVLYESFNKNVKA | WASTRES | QQYHRLPLS | no signal | 0 of 3
KSSQSVLYESRNANSVA | WASTRED | QQYHRLGLS | 0.59 | 3 of 3
KSSASVLYESRHKNSKA | WASTRES | QQYHRLPLS | 4.47 | 1 of 3
KSSQSVLYESWNKNSVA | WASTIES | QQYNRLPLS | 3.26 | 1 of 3
KSSQSVLYCSRNKNPVA | WMSTRES | QQYHRLPLS | no signal | 0 of 3
KSSQSVLYKSRNKNSVA | WAFQRES | QQYHRLPLS | 3.53 | 3 of 3
KSSCSVLYESRNYNSVA | WAETRES | QQYHRLPLS | no signal | 0 of 3
KDSQFVLYESRNKNSVA | WASTRES | QQYHRLPLS | 1.71 | 3 of 3
KSSQSVYYESRNKNSVA | WASTRES | QQYHLLPQS | 3.79 | 1 of 3
KSLQSVLYESRNKNSVA | WASGRES | QQYHRLPLS | no signal | 0 of 3
KTSQSVLYESRNKNSVA | WASTRES | VQYFRLPLS | no signal | 0 of 3
KSSQPVRYESRNKNSVA | WNSTRES | QQYHRLPLS | 3.75 | 1 of 3
KISQSVLYESRNKTSVA | WADTRES | QQYHRLPLS | 0.59 | 3 of 3
NSSQSELYESRNKISVA | WASTRES | QQYHRLPLS | 1.52 | 3 of 3